Assay outcomes as filed in PubChem BioAssay.
Nrf2 activator – activators of Nrf2 (ARE) signaling | AREc32 ARE-luciferase reporter (MCF7-derived line), luminescence, 24 h | 410,000 compounds, 0.31% hits | Potency, µM (titrated, usually from 46.1 µM), without a hit: at the highest dose activation, usual class: activators | AID 624171; further: % of control where 0% means no effect; nearly all actives have a fitted effect of over 65% in size
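Quantitative high-throughput format: AREc32 reporter cells, 1000 per well, received compound by pin transfer and were incubated 24 hr at 37 deg C, 5% CO2, before Steady-Glo luminescence detection.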
Rango release inh – prevents RanGTP from dissociating the Rango-importin beta complex; O95149+P62826; Biochemical FRET Rango-importin beta, RanGTP-induced dissociation; Potency, µM (top dose mostly 46.1 µM), inactives show at the top dose activity change, negative = inhibition; 340,000 compounds, 0.071% hits; AID 540253; calls by dose curve; further: % of control where 0% means no effect; nearly all actives have a fitted effect of over 45% in size
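Recombinant Rango FRET biosensor (EYFP–snurportin 1 IBB–cerulean CFP10) at 0.1 uM premixed with 0.25 uM importin beta in PBS, 1 mM DTT, 0.02% Tween-20, 0.1% BSA. Compound added 5 min; RanGTP-RCC1 (0.6 uM Ran, 2 mM GTP, 0.2 uM RCC1) then triggers release, read at 45 min.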
Nrf2 block – inhibitors of Nrf2 signaling; A549 ARE-Fluc reporter, luciferase luminescence, 18-24 h; Potency, µM (titrated, usually from 46 µM), for inactives: at the top dose activity change, negative = inhibition, most hits filed as inhibitors; 360,000 compounds, 2.1% hits; further: on the % scale 0 is the no-effect control and ±100 the full control effect; nearly all actives have a fitted effect of over 60% in size
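Two sequential reads on A549 ARE_Fluc cells exposed to compound for 18-24 h: a CellTiter-Fluor fluorescence read for viability, then a luciferase luminescence read for Nrf2/ARE activity.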
Rango-impB inh – Rango-importin beta binding inhibition | Rango CFP/YFP FRET sensor + importin beta, 45 min | Potency, µM (doses to about 92.2 µM), without a hit: top-dose inhibition of complex formation | 340,000 compounds, 0.031% hits; calls by dose curve;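 further: 0% = DMSO wells and 100% = buffer wells lacking importin beta; nearly all actives have a fitted effect of over 15% in size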
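FRET biosensor Rango (snurportin 1 IBB between N-terminal EYFP and C-terminal Cerulean), 50 nM in PBS/1 mM DTT/0.02% Tween-20/0.1% BSA, preincubated 5 min RT with compound; 0.125 microM importin beta added, 45 min RT, CFP/YFP FRET ratio read.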
A549 viability – A549 cytotoxicity, counter-screen for Nrf2 inhibitors; A549 ARE-Fluc cells, CellTiter-Fluor viability, 18-24 h; Potency, µM (series often up to 46 µM), inactives show at the highest dose activity change, negative = cytotoxicity, hits mostly inhibitors; 390,000 compounds, 0.16% hits; further: on the % scale 0 is the no-effect control and ±100 the full control effect
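Cytotoxicity counterscreen: CellTiter-Fluor fluorescence was measured in A549 ARE_Fluc cells after 18-24 h of compound exposure in a concentration series. The subsequent BugLite luminescent read reports ARE-luciferase activity.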
* = called active by the depositor; ? = inconclusive; nt = no result. In the library only some 2.3% were active in any assay of this set; here they are far more common. Unless noted, the call rests on the fitted dose curve; in most records, active means well fitted curve in the direction sought with a large enough effect; inconclusive means small, poorly fitted or top-dose-only effect, or another doubt; inactive means no such curve, though single readings can be large; an effect the other way counts as inactive or inconclusive. Potency means the concentration at half of the fitted maximal effect.

SMILES	Nrf2 activator	Rango release inh	Nrf2 block	Rango-impB inh	A549 viability
Cc1ccccc1OCC(=O)Nc1ccc(Cc2ccncc2)cc1	0%	3%	13µM*	2%	5%
COc1ccc(NC(=O)Nc2ccc(Cc3ccncc3)cc2)c(OC)c1	0%	6%	16µM*	0%	-6%
COc1ccc(NC(=O)Nc2cnccn2)c(OC)c1	2%	-7%	1%	5%	-9%
CN1C[C@@H]2[C@@H]3C(=O)N(Cc4ccccc4)C(=O)[C@@H]3[C@](Cc3ccccc3)(C1=O)N2C(=O)c1ccc(Cl)cc1	3%	26%	-10%	?	-2%
CC1=NN(c2ccccc2)C(=O)/C1=C/C=C/C=C/N(C)C	4%	6%	?	16%	10µM*
Cc1ccc(N2CC(NC(=O)c3ccccc3Br)CC2=O)cc1 (centres undefined)	-1%	nt	nt	nt	0%
O=C1c2ccccc2C(=O)c2c(NCCCN(CCO)CCO)cccc21	3%	-6%	?	-1%	?
O=C1c2c(O)ccc(O)c2C(=O)c2c(NCCNCCO)ccc(NCCNCCO)c21	-2%	?	?	3%	13µM*
COc1cc2c(cc1OC)/C(=C/C(=O)c1cccc([N+](=O)[O-])c1)NCC2	5%	17%	13µM*	?	?
COc1cc2c(cc1OC)/C(=C/C(=O)c1ccc(OC)c([N+](=O)[O-])c1)NCC2	6%	12%	?	3%	-24%
Cc1nc2c(c(C)c1CCC(=O)Nc1cccc(C(F)(F)F)c1)c(=O)n(C)c(=O)n2C	0%	nt	?	nt	-11%
Cc1noc(C)c1COc1ccccc1C(=O)N1CCN(S(=O)(=O)c2ccccc2Br)CC1	-2%	-31%	11%	0%	-19%
Cc1cc(C)c(C)c(S(=O)(=O)N2CCN(C(=O)c3ccccc3OCc3c(C)noc3C)CC2)c1C	0%	27%	18µM*	0%	-26%
Cc1noc(C)c1COc1ccccc1C(=O)NNC(=O)c1ccccc1F	10µM*	-12%	-1%	0%	2%
Cc1noc(C)c1COc1ccccc1C(=O)NNC(=O)c1ccc(F)cc1	0%	-17%	5%	0%	2%
O=C(NCc1ccccc1)c1cc(C2COCCN2C(=O)C2CC2)on1 (centres undefined)	0%	nt	nt	nt	nt
CC1(C)CC(=O)C2=C(C1)OC(N)=C(C#N)C2c1cc2c(cc1[N+](=O)[O-])OCO2 (centres undefined)	20%	16µM*	-2%	?	0%
CCOc1cc(C2C(C#N)=C(N)OC3=C2C(=O)CC(C)(C)C3)cc([N+](=O)[O-])c1O (centres undefined)	2%	-3%	-13%	0%	-19%
Cc1onc(-c2ccccc2)c1C(=O)N/N=C/c1c[nH]c2ccccc12	8%	16%	15µM*	5%	?
NC(=NCCc1c[nH]c2ccccc12)NS(=O)(=O)c1ccc2ccccc2c1	5%	-7%	16µM*	1%	?

A draw from above in order of SMILES length, rising:
SMILES	Nrf2 activator	Rango release inh	Nrf2 block	Rango-impB inh	A549 viability
O=C1c2c(O)ccc(O)c2C(=O)c2c(NCCNCCO)ccc(NCCNCCO)c21	-2%	?	?	3%	13µM*
CCOc1cc(C2C(C#N)=C(N)OC3=C2C(=O)CC(C)(C)C3)cc([N+](=O)[O-])c1O (centres undefined)	2%	-3%	-13%	0%	-19%
CN1C[C@@H]2[C@@H]3C(=O)N(Cc4ccccc4)C(=O)[C@@H]3[C@](Cc3ccccc3)(C1=O)N2C(=O)c1ccc(Cl)cc1	3%	26%	-10%	?	-2%

The listing picks up with the 2 entries that preceded the break.
SMILES	Nrf2 activator	Rango release inh	Nrf2 block	Rango-impB inh	A549 viability
Cc1onc(-c2ccccc2)c1C(=O)N/N=C/c1c[nH]c2ccccc12	8%	16%	15µM*	5%	?
NC(=NCCc1c[nH]c2ccccc12)NS(=O)(=O)c1ccc2ccccc2c1	5%	-7%	16µM*	1%	?
C=C(C)c1cc2c(s1)c1cnn(Cc3ccccc3F)c(=O)c1n2C	nt	nt	?	nt	1%
NC(=O)[C@H]1CC2(CC(c3cccc(NC(=O)COc4ccc(Cl)cc4)c3)=NO2)CN1C(=O)c1ccc(Cl)cc1 (some centres undefined)	-3%	0%	26µM*	5%	?
COc1ccc(C2Nc3ccccc3C(=O)N2Cc2cccnc2)cc1COc1ccc(NC(C)=O)cc1 (centres undefined)	nt	nt	?	nt	-6%
CO[C@@]12[C@H](COC(N)=O)C3=C(C(=O)C(C)=C(N)C3=O)N1C[C@@H]1N[C@@H]12	0%	-8%	?	1%	-11%
CO[C@@]12[C@@H]3N[C@@H]3CN1C1=C(C(=O)C(N)=C(C)C1=O)[C@@H]2COC(N)=O	3%	-9%	10µM*	4%	?
COc1ccc(-c2onc(C)c2C)cc1S(=O)(=O)N1CCc2ccccc21	1%	nt	18µM*	nt	-1%
COc1ccc(-c2cc(C)no2)cc1S(=O)(=O)N1CCc2ccccc21	1%	nt	-16%	nt	-1%
CCCn1c(SCC(=O)NC2CCCC2)nnc1C(C)C	0%	9%	-18%	1%	-11%
N#CC1=C(SCC(=O)c2ccc(Br)cc2)NC2=C(C(=O)CCC2)C1c1ccco1 (centres undefined)	3%	?	18µM*	?	?
COc1ccc(OC)c(C(=O)CC2OC(=O)c3ccccc32)c1 (centres undefined)	13µM*	-4%	-5%	1%	-10%
O=C(Nc1ccccc1C(=O)OCc1cc(=O)n2c3c(sc2n1)CCCC3)c1ccccc1	6%	nt	nt	nt	3%
CCCN1C=CC(=C2C(=O)c3ccccc3C2=O)C=C1	-3%	1%	3.3µM*	4%	-25%
CCN1C=CC(=C2C(=O)c3ccccc3C2=O)C=C1	-3%	10%	1.6µM*	4%	-2%
O=C(NCc1cccnc1)C1CCN(C(=O)c2ccc(Cl)cc2Cl)CC1	0%	-15%	8%	-1%	1%
O=C(NCc1cccnc1)C1CCC(c2ccc(Cl)cc2)CC1 (centres undefined)	-1%	3%	23µM*	2%	0%
[N-]=[N+]=CC(=O)CNC(=O)[C@@H](Cc1ccccc1)N1C(=O)c2ccccc2C1=O	0%	-13%	nt	0%	13µM*
Cc1ccccc1Cn1c(CN2CCN(c3cc(Cl)ccc3C)CC2)nc2c1c(=O)[nH]c(=O)n2C	0%	nt	3%	nt	2%
Cc1ccc(Cl)cc1N1CCN(Cc2nc3c(c(=O)[nH]c(=O)n3C)n2Cc2ccccc2F)CC1	-4%	-5%	18µM*	?	-7%
Cc1[nH]n(-c2ccccc2)c(=O)c1/C=N/NC(=O)c1cccc(F)c1	0%	-2%	7.3µM*	1%	-27%
COc1ccc(-c2nc3ccccc3n2Cc2ccccc2)cc1COc1ccc(NC(C)=O)cc1	nt	nt	?	nt	-8%
O=C(Cc1cccc2ccccc12)NCC(=O)N1CCN(Cc2cccc(C(F)(F)F)c2)CC1	1%	?	21µM*	1%	-13%
O=C(Cc1cccc2ccccc12)NCC(=O)N1CCN(CC(=O)Nc2ccc(F)cc2)CC1	-2%	nt	nt	nt	nt
CCOc1ccc(C(=O)Cn2c(=O)n3nc(CCn4nc(C)cc4C)nc3c3cc(OC)c(OC)cc32)cc1	0%	nt	nt	nt	3%
FC(F)Oc1ccc(NC(=S)NCc2ccccc2)cc1Cl	0%	5%	23µM*	2%	?
O=S(=O)(c1ccc(F)cc1)N1CCC(n2c(C(F)(F)F)nc3cccnc32)CC1	3%	nt	21µM*	nt	-1%
CCOc1cc(/C=C2\SC(=S)N(NS(=O)(=O)c3ccc(C)cc3)C2=O)ccc1O	5%	17%	3%	23µM*	?
